One may read the Kd as the constant that tells how readily two partners part at equilibrium.

Amino acid sequences for entries named in this document (tags omitted). Residues count along the entry.
UniProt P28335, 33-458: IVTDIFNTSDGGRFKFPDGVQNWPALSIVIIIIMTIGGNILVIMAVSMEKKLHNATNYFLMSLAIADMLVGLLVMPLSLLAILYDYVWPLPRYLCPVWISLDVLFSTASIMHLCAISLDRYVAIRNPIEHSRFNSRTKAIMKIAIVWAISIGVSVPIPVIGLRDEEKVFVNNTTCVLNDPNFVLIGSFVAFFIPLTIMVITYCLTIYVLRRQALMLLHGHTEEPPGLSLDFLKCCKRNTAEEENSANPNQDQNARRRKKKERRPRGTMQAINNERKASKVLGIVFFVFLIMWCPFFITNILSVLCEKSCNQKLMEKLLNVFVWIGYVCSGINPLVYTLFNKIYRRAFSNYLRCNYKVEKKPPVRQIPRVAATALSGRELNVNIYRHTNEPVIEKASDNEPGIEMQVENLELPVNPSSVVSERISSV

The test deals with human 5-HT2C receptor (Homo sapiens, UniProt P28335). As to the kind of experiment: Radioligand displacement binding, [3H]mesulergine, HeLa-5-HT2C cell membranes. Particulars: read-out: KD of radioligand at human 5-HT2C receptor. Background: In a radioligand displacement assay an active substance lowers the binding of a labelled ligand.

For the substance [^3H]-mesulergine [reference compound], the Kd was 0.67 nM.

The values above are taken from paper PMC7016908 (ACS Omega, 2020).
